The test system of series [1] is laser skin resurfacing wound. As to the kind of experiment: split upper lip laser skin resurfacing wound model. The following applies: patient diaries. Format: in vivo, human.
Another series has as its system skin. As to the kind of experiment: pilot open patch testing on known sensitive skinned individuals.

With `O=C([O-])CCC(=O)C(=O)[O-].[Na+].[Na+]` [α-keto-glutaric acid, sodium salt], the Pain result in series [1] is listed as “increase in pain”. The Irritation entry in the series on skin is “red skin irritations and welt-like reactions”.
